Values after ≈ are worked out from the molar mass of the structure shown.
Assays:
Format in all cases: cell-based
[1] = test system: human red blood cells (hRBCs); test: Hemolysis assay; details: peptide concentration that caused 10% hemolysis; 2% (v/v) hRBCs in PBS pH 7.4, 0.98 to 250 μg/ml, 1 h, 37 °C, OD 405 nm, triplicate
[2] = test system: Staphylococcus aureus ATCC 25,923; details: S. aureus ATCC 25,923; broth microdilution, MHB, 24 h, 37 °C, triplicate
[3] = test system: Escherichia coli ATCC 25,922; details: E. coli ATCC 25,922; broth microdilution, MHB, 24 h, 37 °C, triplicate

CC[C@H](C)[C@H](NC(=O)CN)C(=O)NCC(=O)N[C@@H](C)C(=O)N[C@H](C(=O)N[C@@H](CC(C)C)C(=O)N[C@@H](CCCCN)C(=O)N[C@H](C(=O)N[C@@H](CC(C)C)C(=O)N[C@H](C(=O)N[C@H](C(=O)NCC(=O)N[C@@H](CC(C)C)C(=O)N1CCC[C@H]1C(=O)N[C@@H](C)C(=O)N[C@@H](CC(C)C)C(=O)N[C@H](C(=O)N[C@@H](CO)C(=O)N[C@@H](Cc1c[nH]c2ccccc12)C(=O)N[C@H](C(=O)N[C@@H](CCCCN)C(=O)N[C@@H](CCCNC(=N)N)C(=O)N[C@@H](CCCCN)C(=O)N[C@@H](CCCNC(=N)N)C(=O)N[C@@H](CCC(N)=O)C(=O)N[C@@H](CCC(N)=O)C(N)=O)[C@@H](C)CC)[C@@H](C)CC)[C@@H](C)O)[C@@H](C)O)C(C)C)C(C)C [Melittin, reference compound]
MHC, minimum hemolytic concentration [1]: < 0.98 µg/mL | MIC [2]: 15.63 µg/mL (≈ 5.49 µM) | MIC [3]: 3.91 µg/mL (≈ 1.37 µM)
